# Source: PubChem BioAssay AID540263 (National Center for Advancing Translational Sciences (NCATS), 2011)
# Chains of the proteins cited; added tags and fusions are not shown.
# UniProt Q14974, whole entry: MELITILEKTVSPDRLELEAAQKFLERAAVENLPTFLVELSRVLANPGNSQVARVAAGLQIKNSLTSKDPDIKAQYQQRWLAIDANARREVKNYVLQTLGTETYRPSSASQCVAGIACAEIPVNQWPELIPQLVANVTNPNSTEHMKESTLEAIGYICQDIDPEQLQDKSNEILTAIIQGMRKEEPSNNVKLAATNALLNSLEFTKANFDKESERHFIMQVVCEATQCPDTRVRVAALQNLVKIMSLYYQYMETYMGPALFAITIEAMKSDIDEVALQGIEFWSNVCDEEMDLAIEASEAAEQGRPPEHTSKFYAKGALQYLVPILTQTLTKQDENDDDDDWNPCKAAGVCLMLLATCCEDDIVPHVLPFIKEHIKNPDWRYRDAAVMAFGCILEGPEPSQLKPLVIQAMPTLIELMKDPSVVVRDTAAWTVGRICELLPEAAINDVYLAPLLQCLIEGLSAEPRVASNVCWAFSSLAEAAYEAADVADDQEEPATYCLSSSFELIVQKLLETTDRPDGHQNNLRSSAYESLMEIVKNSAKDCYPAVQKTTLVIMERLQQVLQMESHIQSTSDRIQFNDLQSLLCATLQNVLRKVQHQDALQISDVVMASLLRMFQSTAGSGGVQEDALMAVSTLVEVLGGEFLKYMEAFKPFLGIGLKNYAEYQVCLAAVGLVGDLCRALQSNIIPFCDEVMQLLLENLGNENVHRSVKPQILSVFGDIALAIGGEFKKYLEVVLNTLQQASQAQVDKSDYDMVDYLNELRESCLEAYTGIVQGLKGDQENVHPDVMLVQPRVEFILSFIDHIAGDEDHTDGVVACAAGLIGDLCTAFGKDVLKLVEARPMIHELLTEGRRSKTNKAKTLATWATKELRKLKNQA
# UniProt O95149, whole entry partner: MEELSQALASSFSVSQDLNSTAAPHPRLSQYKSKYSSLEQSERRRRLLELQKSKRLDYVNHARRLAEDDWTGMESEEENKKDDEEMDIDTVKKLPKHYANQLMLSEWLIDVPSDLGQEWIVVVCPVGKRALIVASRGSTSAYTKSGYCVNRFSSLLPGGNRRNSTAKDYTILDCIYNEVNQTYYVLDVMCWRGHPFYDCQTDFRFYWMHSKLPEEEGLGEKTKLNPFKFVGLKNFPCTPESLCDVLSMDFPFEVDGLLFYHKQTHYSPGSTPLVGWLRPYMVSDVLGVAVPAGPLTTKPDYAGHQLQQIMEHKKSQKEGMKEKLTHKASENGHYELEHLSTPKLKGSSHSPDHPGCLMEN
# This is a selection; strong and weak results do not stand in their true shares. Inconclusive results are not listed. Calls of active or inactive are those of the source. The call rests on the fitted dose curve.
# Molecular target: Importin subunit beta-1 (Homo sapiens) (UniProt Q14974)
# Assay: qHTS Assay for Inhibitors of Rango (Ran-regulated importin-beta cargo) - Importin beta complex formation;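 further: 0% = DMSO wells and 100% = buffer wells lacking importin beta; nearly all actives have a fitted effect of over 15% in size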
# Details: Rango CFP/YFP FRET sensor + importin beta, 45 min; at 92.2 µM (top of the series)
# Text: NIH Molecular Libraries Probe Production Centers Network [MLPCN] NIH Chemical Genomics Center [NCGC] MLPCN Grant: R03 MH090808-01A1 Assay Submitter (PI): Petr Kalab NCGC Assay Overview: The small GTPase Ran regulates transport of macromolecules between the nucleus and the cytoplasm (nuclear transport) and has important functions in mitotic spindle assembly, nuclear envelope (NE) formation and nuclear pore complex (NPC) assembly. RanGTP gradient is thought to promote spindle assembly by providing a spatial clue to microtubule nucleation and Aurora A activation. Because the localized release and binding of importin alpha cargo relays this spatial clue to SAFs, inhibitors of the Rango - importin beta complex can then be used in further understanding their role in cell cycle specifically in mitosis progression. […] The assay used a fluorescence resonance energy transfer (FRET) Rango biosensor that contains the IBB of human snurportin 1 flanked by yellow fluorescent protein (EYFP) at the amino terminus and cerulean CFP10 at the carboxy terminus. […] FRET readings were obtained at two time points. FRET reading prior to importin beta addition (pre-read) were used flag potential compound interference; FRET reading after importin beta addition (post-read) were used to identify inhibitors using the FRET ratio parameter. […]
row,Compound,inhibition of complex formation
1,CCC(=O)N(c1ccccc1)C1(COC)CCN(CCn2nnn(CC)c2=O)CC1,inactive: -0.455%
